This test has as its target cAMP and cAMP-inhibited cGMP 3',5'-cyclic phosphodiesterase 10A (Homo sapiens, UniProt Q9Y233). Kind of test: Enzyme Inhibition Assay: To check the inhibition profile, 5 μL of serial diluted compounds were incubated with 5 μL of diluted PDE10 enzyme (BPS Bioscience, San Diego, Calif.) or tissue homogenate in a 384-well polystyrene assay plate (Corning, Corning, N.Y.) for 30 min at room temperature. After incubation, 10 μL of diluted fluorescein labeled cAMP or cGMP substrate were added and incubated for 60 min at room temperature. The reaction was stopped by adding 60 μL of diluted binding reagents and plates were read on an Envision (Perkin Elmer, Waltham, Mass.) for time resolved fluorescence resonance energy transfer. The data were analyzed with GraphPad Prism (La Jolla, Calif.).

Chains of the proteins cited; added tags and fusions are not shown. Lines headed by an entry give the natural chain unless they say otherwise; changes in a name come on top.
UniProt Q9Y233: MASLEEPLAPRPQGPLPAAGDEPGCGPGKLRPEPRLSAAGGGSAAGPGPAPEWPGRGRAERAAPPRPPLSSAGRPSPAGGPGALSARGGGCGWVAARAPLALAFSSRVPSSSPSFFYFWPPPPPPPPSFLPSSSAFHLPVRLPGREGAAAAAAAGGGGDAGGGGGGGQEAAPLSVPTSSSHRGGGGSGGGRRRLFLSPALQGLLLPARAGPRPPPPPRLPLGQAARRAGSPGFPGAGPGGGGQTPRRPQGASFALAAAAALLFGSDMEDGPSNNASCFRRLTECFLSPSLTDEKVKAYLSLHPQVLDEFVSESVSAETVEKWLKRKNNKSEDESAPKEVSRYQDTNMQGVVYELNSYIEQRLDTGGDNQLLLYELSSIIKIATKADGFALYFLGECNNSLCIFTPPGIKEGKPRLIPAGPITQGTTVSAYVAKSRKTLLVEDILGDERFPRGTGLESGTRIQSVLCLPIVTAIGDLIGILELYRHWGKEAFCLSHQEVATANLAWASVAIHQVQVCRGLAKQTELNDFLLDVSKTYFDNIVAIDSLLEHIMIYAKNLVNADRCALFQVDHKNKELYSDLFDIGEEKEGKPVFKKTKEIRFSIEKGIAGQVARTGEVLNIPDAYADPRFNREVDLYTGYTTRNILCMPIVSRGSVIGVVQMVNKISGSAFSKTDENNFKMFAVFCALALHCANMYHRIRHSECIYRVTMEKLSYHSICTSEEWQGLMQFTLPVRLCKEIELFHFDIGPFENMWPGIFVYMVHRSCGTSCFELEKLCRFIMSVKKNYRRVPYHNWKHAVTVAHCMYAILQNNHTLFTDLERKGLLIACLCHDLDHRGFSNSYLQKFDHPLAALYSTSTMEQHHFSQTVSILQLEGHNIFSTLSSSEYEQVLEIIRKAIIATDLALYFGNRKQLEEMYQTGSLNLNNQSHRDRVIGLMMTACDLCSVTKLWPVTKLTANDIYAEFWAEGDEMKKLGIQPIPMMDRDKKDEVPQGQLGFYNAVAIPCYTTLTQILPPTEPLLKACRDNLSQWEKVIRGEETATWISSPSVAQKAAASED

The values that follow come from ChEMBL document CHEMBL3638462, “Pyridine and pyrimidine derivatives as phosphodiesterase 10 inhibitors” (2014).

Broadly, the IC50 is the concentration at which inhibition is half-maximal. Read a low IC50 as higher potency. Consider `CC(=O)N1CCC[C@H](c2cccnc2Oc2ccc(C(=O)c3nc4ccccc4[nH]3)cc2)C1`, for which the IC50 is 0.0503 nM. Under `O=C(c1ccc(Oc2ncccc2C(=O)NCCBr)cc1)c1nc2ccccc2[nH]1` stands 27.4 nM.
